Measurements published in PMC12559310, “Tumor-targeted top1 inhibitor delivery with optimized parp inhibition in advanced solid tumors: a phase i trial of gapped scheduling” (Nature Communications, 2025).

Assays:
[1] = tested on: HER-2 negative gastric cancer; conditions: 9 patients with evaluable biopsies, 24 to 48 hours after a single dose of CRLX101; cited from earlier work
[2] = tested on: rat; conditions: ref CRLX101 Investigators Brochure; cited from earlier work
[3] = tested on: dog; conditions: ref CRLX101 Investigators Brochure; cited from earlier work
[4] = tested on: patients with advanced solid malignancies; conditions: cited from earlier work
[5] = tested on: NSCLC; conditions: cited from earlier work
[6] = tested on: treated subjects; conditions: cited from earlier work
[7] = tested on: bone marrow; conditions: preclinical models; cited from earlier work
[8] = cited from earlier work
[9] = Plasma pharmacokinetics of CRLX101 (total, polymer-conjugated and polymer-unconjugated CPT); conditions: for Conjugated CPT Concentration: cycle 1, per subject; for AUCINF, Un (polymer-unconjugated CPT) / CMAX, Con (polymer-conjugated CPT) / CMAX, Con+Un (total CPT) / CMAX, Un (polymer-unconjugated CPT) / AUCINF, Con (polymer-conjugated CPT) / AUCINF, Con+Un (total CPT) / CL, Con+Un / T1/2, Con+Un / VSS, Con+Un: arithmetic mean
[10] = CRLX101 plus BSC group (10 subjects)
[11] = Cycle 1, N 24, CRLX101 12 mg/m2 1 h IV infusion

## Poly-CD-PEG-Camptothecin [CRLX101]
[1]
  patients with clear evidence of CPT within the post-treatment tumor: 7
  patients with potential evidence of CPT in the post-treatment normal tissue: one
[2]
  Dose-limiting toxicity: largely body weight losses
[3]
  Dose-limiting toxicity: largely body weight losses
[4]; Study CRLX-001, 3 subjects, none received pre-medication
  Grade 3/4 related TEAEs at time of infusion: 5%
[4]; Study CRLX-001, all subjects (31 subjects)
  TEAE fatigue: 50%
[4]; Study CRLX-001, all subjects
  TEAE anemia: 23%
  TEAE constipation: 24%
  TEAE cough: 24%
  TEAE cystitis: 27%
  TEAE decreased appetite: 23%
  TEAE dyspnea: 21%
  TEAE dysuria: 23%
  TEAE nausea: 29%
[4]; bi-weekly dosing, ref protocol [15]
  Dose-limiting toxicity: myelosuppression
[5]; [10]
  TEAE cystitis: 10%
  TEAE fatigue: 10%
[5]; CRLX101 plus BSC group (11 subjects)
  TEAE nausea: 11%
[5]; CRLX101 plus BSC group (14 subjects)
  TEAE cough: 14%
[5]; CRLX101 plus BSC group (17 subjects)
  TEAE dyspnea: 18%
[5]; CRLX101 plus BSC group (25 subjects)
  TEAE anemia: 26%
[6]; 10 of the 218 subjects who received required pre-medications, all Grade 1 or 2
  Infusion-related hypersensitivity reactions: 5%
[6]; 13 of the 280 treated subjects
  Infusion-related hypersensitivity reactions: 5%
[7]
  time by which most CRLX101 is cleared from the bone marrow: ≤ 24 h
[8]; stored at refrigerated conditions (2° - 8°C)
  stability of vials: at least 3 years
[8]; stored at room temperature
  stability of the reconstituted solution: 24 h
[9]; 0.5 hours after start of first CRLX101 dose
  Conjugated CPT Concentration: 3119.29 ng/mL and 2451.39 ng/mL and 2241.49 ng/mL and 2750.17 ng/mL and 2734.98 ng/mL and 2981.64 ng/mL
[9]; 1 hours after start of first CRLX101 dose
  Conjugated CPT Concentration: 5569.85 ng/mL and 5050.3 ng/mL and 6129.31 ng/mL and 5729.59 ng/mL and 6505.1 ng/mL and 5215.43 ng/mL and 6105 ng/mL and 4884.43 ng/mL
[9]; 2 hours after start of first CRLX101 dose
  Conjugated CPT Concentration: 4937.83 ng/mL and 4866.01 ng/mL and 4003.54 ng/mL and 5279.84 ng/mL and 4668.73 ng/mL and 5287.52 ng/mL and 4867.01 ng/mL and 4710.51 ng/mL
[9]; 3 hours after start of first CRLX101 dose
  Conjugated CPT Concentration: 4147.25 ng/mL and 3757.7 ng/mL and 4709.06 ng/mL and 4705.75 ng/mL and 5113.41 ng/mL and 5094 ng/mL and 4061.93 ng/mL and 4336.58 ng/mL and 3673.43 ng/mL
[9]; 13 hours after start of first CRLX101 dose
  Conjugated CPT Concentration: 2867.48 ng/mL and 3141.48 ng/mL and 3123.58 ng/mL and 2802.9 ng/mL and 3170.09 ng/mL
[9]; 25 hours after start of first CRLX101 dose
  Conjugated CPT Concentration: 1589.33 ng/mL and 1900.57 ng/mL and 2533.11 ng/mL and 2099.85 ng/mL and 1961.48 ng/mL and 1857.1 ng/mL and 1589.85 ng/mL
[9]; 50 hours after start of first CRLX101 dose
  Conjugated CPT Concentration: 628.56 ng/mL and 685.94 ng/mL and 1045.86 ng/mL and 928.07 ng/mL and 833.06 ng/mL
[9]; Cycle 1, 4 patients excluded
  AUCINF, Un (polymer-unconjugated CPT): 25,418.6 hr*ng/mL
[9]; [11]
  CMAX, Con (polymer-conjugated CPT): 5230 ng/mL
  CMAX, Con+Un (total CPT): 5,406 ng/mL
  CMAX, Un (polymer-unconjugated CPT): 266.9 ng/mL
[9]; Cycle 1, one patient excluded
  AUCINF, Con (polymer-conjugated CPT): 168,737 hr*ng/mL
  AUCINF, Con+Un (total CPT): 194,928 hr*ng/mL
  CL, Con+Un: 0.117 L/h
  T1/2, Con+Un: 47.42 h
  VSS, Con+Un: 6.40 L
[9]; Cycle 6, N 5
  AUCINF, Con (polymer-conjugated CPT): 158,014 hr*ng/mL
  AUCINF, Con+Un (total CPT): 173,181 hr*ng/mL
  CL, Con+Un: 0.0944 L/h
  CMAX, Con (polymer-conjugated CPT): 4,989 ng/mL
  CMAX, Con+Un (total CPT): 5,115 ng/mL
  CMAX, Un (polymer-unconjugated CPT): 180.6 ng/mL
  T1/2, Con+Un: 37.17 h
  VSS, Con+Un: 4.36 L
[9]; Cycle 6, one patient excluded
  AUCINF, Un (polymer-unconjugated CPT): 22,294.5 hr*ng/mL
[9]; comparison ref 38
  PK of CRLX101 compared with that expected for camptothecin: lower maximum concentration, longer elimination half-life, higher area under the curve, smaller volume of distribution, and slower plasma clearance

Where “and” joins values, the source holds several entries; their conditions need not be identical. Identical values can stand only once. Like-named read-outs stand apart in the source and are kept apart here.
